# Laboratory results reported in PubChem BioAssay AID1631 (National Center for Advancing Translational Sciences (NCATS), 2009).
# By UniProt entry, the sequences of proteins in these tests, tags left out.
# UniProt P14618, whole entry: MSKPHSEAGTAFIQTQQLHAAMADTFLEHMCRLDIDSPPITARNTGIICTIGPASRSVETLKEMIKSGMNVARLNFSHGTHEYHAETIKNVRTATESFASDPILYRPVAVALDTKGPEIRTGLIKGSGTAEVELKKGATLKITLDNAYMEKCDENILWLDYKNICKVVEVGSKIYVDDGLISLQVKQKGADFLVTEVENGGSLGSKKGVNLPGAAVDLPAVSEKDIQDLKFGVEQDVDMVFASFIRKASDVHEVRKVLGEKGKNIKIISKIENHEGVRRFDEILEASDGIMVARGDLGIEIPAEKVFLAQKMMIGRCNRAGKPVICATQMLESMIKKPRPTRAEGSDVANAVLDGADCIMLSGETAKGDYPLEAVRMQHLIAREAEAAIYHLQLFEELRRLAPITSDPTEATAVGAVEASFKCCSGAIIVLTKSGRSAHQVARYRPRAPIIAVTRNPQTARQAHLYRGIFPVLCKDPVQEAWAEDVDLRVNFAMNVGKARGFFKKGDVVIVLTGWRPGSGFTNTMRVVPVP
# The entries are a selection whose mix differs from that of the whole data set. Some results for these compounds are left out of this collection, so the calls shown say nothing about other tests. Active and inactive are the calls of the source. Calls come from the whole dose curve; as a rule, active = well fitted activation curve with a large enough effect; inconclusive = small, poorly fitted or top-dose-only effect; inactive = no such curve, though single readings can be large or run the other way.
# Target: Pyruvate kinase PKM (Homo sapiens) (UniProt P14618)
# Test: qHTS Assay for Activators of Human Muscle isoform 2 Pyruvate Kinase; note: nearly all actives have a fitted effect of over 55% in size
# Conditions: purified PKM2, Kinase-Glo ATP luminescence, 0% is enzyme alone, no compound; at 57.5 µM (top of the series)
# Source text: NIH Chemical Genomics Center [NCGC] Matthew G. Vander Heiden, M.D., Ph.D. [Harvard Medical School, 77 Avenue Louis Pasteur, Boston, MA 02115] MLPCN Grant: 1 R03 MH085679-01 NCGC Assay Overview: Human pyruvate kinase muscle 2 (hPK-M2) enzyme was supplied as a highly purified (>95% pure) preparation from Harvard Medical School and assayed for its ability to generate ATP from ADP using phosphoenolpyruvate (PEP) as a substrate. ATP generation was detected in a coupled reaction by luciferase-mediated luminescence, an ATP-dependent process. […] The enzyme was assayed at an intermediate level of activity to screen for both inhibitors and activators.
# NCGC Assay Protocol Summary: Three uL of substrate mix (at r.t.) in assay buffer (50 mM Imidazole pH7.2, 50 mM KCl, 7 mM MgCl2, 0.01% Tween 20, 0.05% BSA) was dispensed into white solid bottom 1,536 well microtiter plates so that the final concentrations of substrates in the assay were 0.1 mM ADP and 0.5 mM PEP. 23 nL of compound were delivered by a pin tool and 1 uL of enzyme mix in assay buffer (4 degree Celsius) was added. Plates were incubated at room temperature for 1 hour. Two uL of detection mix (Kinase-Glo, Promega; at 4 degree Celsius protected from light) was added and luminescence read by a ViewLux (Perkin Elmer) at 5 second exposure/plate. Data were normalized to the uninhibited and AC100 inhibition (no enzyme). To monitor activation, the first column contained a titration of the activator, NCGC00031955-01 (16-point 1:2 dilutions in duplicate starting at 57 uM) and the first 16 rows of column 4 contained 57 uM of NCGC00031955-01.
# % is set by controls: 0 for no effect and ±100 for the full control effect.
row,Compound,activation
1,COc1cccc(C(=O)NCC2(N3CCCCC3)CCCCC2)c1,inactive: 2.23%
2,O=C(OC1CN2CCC1CC2)C(CO)(c1ccccc1)c1ccccc1 (stereo not drawn),inactive: -6.95%
3,COc1ccc(Br)c(C(=O)NCC2(N3CCCCC3)CCCCC2)c1,inactive: -4.38%
4,CN(C)c1cccc(C(=O)NCC2(N(C)C)CCCCC2)c1,inactive: -4.13%
5,O=C(NCC1(N2CCCCC2)CCCCC1)c1cc([N+](=O)[O-])ccc1Cl,inactive: -8.08%
6,CCN(CC)CC(C)C(C)OC(=O)C(O)(c1ccccc1)c1ccccc1 (stereo not drawn),inactive: -0.143%
7,CC(C)N1C(=O)CC2(CCN(CCOC(=O)C(O)(c3ccccc3)c3ccccc3)CC2)C1=O,inactive: -0.0536%
8,Cc1ccc(C(=O)NCC2(N3CCCCC3)CCCCC2)cc1,inactive: -4.82%
9,CN(C)C1CCCC1OC(=O)C(O)(c1ccccc1)c1ccccc1 (stereo not drawn),inactive: 1.58%
10,Cc1ccccc1C(=O)NCC1(N2CCCCC2)CCCCC1,inactive: 2.35%
11,O=C(NCC1(N2CCCCC2)CCCCC1)c1cc(F)c(F)cc1Cl,inactive: 1.97%
12,CCN1CCCC(OC(=O)C2(O)c3ccccc3C=Cc3ccccc32)C1 (stereo not drawn),inactive: 1.63%
13,Cc1cc(C(=O)NCC2(N3CCCCC3)CCCCC2)ccc1[N+](=O)[O-],inactive: -3.3%
